Assay results published in patent US5856189A, “Cell culture model for drug bioavailability” (priority 1997, dated 1999).

Assays:
cytochrome b5 = experiment: Immunoblot of cytochrome b5 in Caco-2 cells; format: cell-based, human; conditions: two weeks treatment, varying concentrations
P-glycoprotein = experiment: Immunoblot of P-glycoprotein in Caco-2 cells; format: cell-based, human; conditions: two weeks treatment
IFABP = experiment: Immunoblot of IFABP in Caco-2 cells; format: cell-based, human; conditions: two weeks treatment, varying concentrations
[1] = tested on: IFABP mRNA (Caco-2 cells)
[2] = tested on: CYP3A4 mRNA (Caco-2 cells)

| Compound | level of cytochrome b5 immunoreactive protein (cytochrome b5) | concentrations at which immunoreactive P-glycoprotein increased (P-glycoprotein) [µM] | level of IFABP protein (IFABP) | IFABP mRNA level [1] | enhancement of CYP3A4 mRNA expression [2] |
| --- | --- | --- | --- | --- | --- |
| C=C1/C(=C\C=C2/CCC[C@]3(C)[C@@H]([C@H](C)CCCC(C)(C)O)CC[C@@H]23)C[C@@H](O)C[C@@H]1O [1α,25-(OH)2 -D3, 1α,25-dihydroxyvitamin D3] | did not appear to change | ≥ 0.5 | Neither of the FABPs showed changes in levels of expression | did not appear to increase | – |
| CC(=O)C(=O)[O-].[Na+] [sodium pyruvate] | – | – | – | – | did not appear to enhance CYP3A4 mRNA expression |
